# Experimental data as given in patent US20260000678A1, “PHARMACEUTICAL COMPOSITION FOR PREVENTING, SUPPRESSING, OR TREATING SYMPTOM ASSOCIATED WITH PSEUDO-ALLERGIC REACTION” (Takasaki University of Health and Welfare, priority 2022, published 2026).
# Test system: PMCs
# Assay: Degranulation of PMCs (β-hexosaminidase release rate)
# Format: cell-based, mouse
# Conditions: wild-type PMCs, 37° C. 10 minutes; DNP-HSA on IgE-sensitized PMCs; C48/80 10 uM; Substance P 100 uM; PAMP-12 10 uM; vancomycin 1 mM; BzATP 10 uM
substance,measurement,value
"2,4-dinitrophenyl-conjugated human serum albumin [DNP-HSA]",Degranulation of PMCs by the stimulant alone,induced
